Laboratory results: ChEMBL document CHEMBL1125867 (J Med Chem, 1991)

How the values were obtained:
[1] = Compound was evaluated for cell growth inhibition of human (WI-L2) leukemic cells.; format: functional, cell-based; conditions: WIL2
[2] = system: L1210; test: Compound was evaluated for cell growth inhibition of murine (L1210) leukemic cells; format: functional, cell-based; conditions: Mus musculus

## Cc1nc(N)c2nc(CN(C)c3ccc(C(=O)NC(CCC(=O)O)C(=O)O)cc3)cnc2n1 (configuration not stated)
[1]
  IC50: 330 nM
[2]
  IC50: 220 nM
